Key:
[1] = target: Sodium-dependent dopamine transporter (Mus musculus, UniProt Q61327); test: Inhibition of [125I]RTI-55 binding to mouse DAT expressed in HEK293 cells preincubated for 10 mins followed by radioligand addition measured after 90 mins by micro beta scintillation counting analysis; format: cell-based
[2] = target: T1, Sodium-dependent noradrenaline transporter (Homo sapiens, UniProt P23975); test: Inhibition of recombinant human NET expressed in HEK293 […] assessed as reduction in [3H]-norepinephrine uptake incubated for 22 mins by micro beta scintillation counting analysis
[3] = target: T1, Sodium-dependent noradrenaline transporter; test: Enhancing of [125I]RTI-55 binding to recombinant human NET expressed in HEK293 cell membranes preincubated for 10 mins followed by radioligand addition measured after 90 mins by micro beta scintillation counting analysis

The chains behind the UniProt entries cited, without tags or fusion partners.
UniProt Q61327, whole entry: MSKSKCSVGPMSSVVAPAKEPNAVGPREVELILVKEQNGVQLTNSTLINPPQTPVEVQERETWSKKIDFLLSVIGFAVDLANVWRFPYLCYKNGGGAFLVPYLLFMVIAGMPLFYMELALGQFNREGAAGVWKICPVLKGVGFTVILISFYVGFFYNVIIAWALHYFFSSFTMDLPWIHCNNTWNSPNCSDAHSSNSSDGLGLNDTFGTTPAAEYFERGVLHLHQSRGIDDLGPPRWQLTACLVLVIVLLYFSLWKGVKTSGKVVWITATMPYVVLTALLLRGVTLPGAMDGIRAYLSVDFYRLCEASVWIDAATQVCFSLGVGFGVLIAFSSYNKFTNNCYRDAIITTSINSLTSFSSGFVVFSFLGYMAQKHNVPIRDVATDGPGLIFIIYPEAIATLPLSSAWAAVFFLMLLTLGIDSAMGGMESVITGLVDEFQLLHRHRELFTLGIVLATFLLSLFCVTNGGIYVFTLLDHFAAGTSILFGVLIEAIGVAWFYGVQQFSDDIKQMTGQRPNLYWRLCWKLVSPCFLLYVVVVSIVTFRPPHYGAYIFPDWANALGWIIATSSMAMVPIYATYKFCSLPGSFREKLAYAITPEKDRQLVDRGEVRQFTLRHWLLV
UniProt P23975, whole entry: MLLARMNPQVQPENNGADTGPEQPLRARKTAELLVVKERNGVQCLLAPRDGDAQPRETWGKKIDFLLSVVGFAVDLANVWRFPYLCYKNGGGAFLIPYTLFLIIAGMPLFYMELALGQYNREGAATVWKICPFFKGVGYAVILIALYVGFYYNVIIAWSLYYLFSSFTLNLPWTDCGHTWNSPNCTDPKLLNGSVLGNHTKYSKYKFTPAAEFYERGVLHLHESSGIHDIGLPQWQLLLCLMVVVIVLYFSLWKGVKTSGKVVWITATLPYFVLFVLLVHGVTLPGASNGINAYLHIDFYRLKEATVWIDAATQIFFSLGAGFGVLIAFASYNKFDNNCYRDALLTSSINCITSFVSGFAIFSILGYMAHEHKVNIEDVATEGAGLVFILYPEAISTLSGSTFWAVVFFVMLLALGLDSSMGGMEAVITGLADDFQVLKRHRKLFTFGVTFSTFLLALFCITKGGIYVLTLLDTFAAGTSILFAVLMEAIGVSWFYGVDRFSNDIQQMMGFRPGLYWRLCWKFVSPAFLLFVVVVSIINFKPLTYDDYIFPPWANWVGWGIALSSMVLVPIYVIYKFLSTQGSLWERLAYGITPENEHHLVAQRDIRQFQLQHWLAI

Structure (SMILES) | Ki [1] [nM] | IC50 [2] [nM] | EC50 [3] [nM]
OC1(c2ccc(Cl)cc2)c2ccccc2C2=NCCN21 (racemic) [MAZINDOL] | 404 |  | 
CNC(=O)[C@@]12C[C@@H]1[C@@H](n1cnc3c(NC)nc(C#Cc4ccc(F)c(F)c4)nc31)[C@H](O)[C@@H]2O |  | > 10000 | 1760

Reference: ChEMBL document CHEMBL4007505 (J Med Chem, 2017)
